The record followed here is patent EP4840453A1, “CANCER TREATMENT AGENT CONTAINING CLK INHIBITOR AS ACTIVE INGREDIENT” (dated 2026).

The test system of series [1] is OVCAR-8 cells. Nature of the series: Model with subcutaneous transplantation of OVCAR-8 cells (tumor volume T/C, body weight), Example 5. Particulars: for %BWL (Daily maximum): BALB/c nude mice, day in parentheses; for T/C(%): Day 22; for Number of animals removed: N 6; for Average tumor volume (mm^3) day22: day 22.
Series [2] deals with HL-60. Nature of the series: Cell proliferation assay (ATPlite 1Step), single agents and combination with Compound A, curve-shift and CI; 72 h culture, 120 h for EPZ-6438, JQ1, MLN-4924, MLN-7243, MPI-0479605, NMS-P715. A general note: Cellular ATP, detected with luciferase, serves as a proxy for viable cell number.
For series [3], the system named is NCI-H661. The description is as above.
Series [4] relates to MV-4-11 cells. Put plainly: Model with subcutaneous transplantation of MV-4-11 cells (tumor volume T/C, body weight), two-agent combinations, Example 3. The settings on record: G5, 25 mg/kg IP QD Q2D.
Where [5] appears, read: blending ratio (Compound A : combined compound) 1:4, Fa 50.
[6] abbreviates: blending ratio (Compound A : combined compound) 4:1, Fa 75.
Where [7] appears, read: blending ratio (Compound A : combined compound) 1:1, Fa 90.
Setting [8] is: blending ratio (Compound A : combined compound) 1:4, Fa 75.
The mark [9] stands for this setting: blending ratio (Compound A : combined compound) 4:1, Fa 50.
[10] abbreviates: NCI-H661, blending ratio (Compound A : combined compound) 1:1, Fa 50.
[11] abbreviates: NCI-H661, blending ratio (Compound A : combined compound) 1:1, Fa 75.
Setting [12] is: NCI-H661, blending ratio (Compound A : combined compound) 1:4, Fa 50.
[13] abbreviates: NCI-H661, blending ratio (Compound A : combined compound) 1:4, Fa 75.
Where [14] appears, read: NCI-H661, blending ratio (Compound A : combined compound) 4:1, Fa 75.
Setting [15] is: Compound A + combined compound at fixed concentration 1 µM, Fa 75.
The mark [16] stands for this setting: Compound A + combined compound at fixed concentration 1 µM, Fa 90.
Where [17] appears, read: blending ratio (Compound A : combined compound) 1:1, Fa 75.
[18] abbreviates: blending ratio (Compound A : combined compound) 4:1, Fa 90.
Where [19] appears, read: blending ratio (Compound A : combined compound) 1:1, Fa 50.
Setting [20] is: blending ratio (Compound A : combined compound) 1:4, Fa 90.
Setting [21] is: Compound A + combined compound at fixed concentration 3.2 µM, Fa 90.
The mark [22] stands for this setting: NCI-H661, Compound A + combined compound at fixed concentration 3.2 µM, Fa 75.
Setting [23] is: NCI-H661, blending ratio (Compound A : combined compound) 4:1, Fa 50.

As for `CC(=O)O[C@H]1C(=O)[C@@]2(C)[C@H]([C@H](OC(=O)c3ccccc3)[C@]3(O)C[C@H](OC(=O)[C@H](O)[C@@H](NC(=O)c4ccccc4)c4ccccc4)C(C)=C1C3(C)C)[C@]1(OC(C)=O)CO[C@@H]1C[C@@H]2O`, in series [1] (G6, 15 mg/kg IV QD Q4D), the “Average change in tumor volume (mm^3) (Day 22 - Day0)” value (shortened to “Average change … (Day 22 - Day0)”) stood at 168.8 mm^3, the “%BWL (Daily maximum)” value was -1.3(4) %, the “T/C(%)” value is reported as 79.4% and the “Number of animals removed” value is 0. The “Average tumor volume (mm^3) day22” value in series [1] (G6, 15 mg/kg IV QD Q4D) turned out to be 327.4 mm^3.

For carboplatin, in series [1] (G5, 50 mg/kg IP QD QW), the “Average change … (Day 22 - Day0)” value was found to be 108.6 mm^3, the “%BWL (Daily maximum)” value was 0.0(0) %, the “T/C(%)” value stood at 51.1% and the “Number of animals removed” value stood at 0. Further, the “Average tumor volume (mm^3) day22” value in series [1] (G5, 50 mg/kg IP QD QW) is given as 267.0 mm^3.

Take `C=CCn1c(=O)c2cnc(Nc3ccc(N4CCN(C)CC4)cc3)nc2n1-c1cccc(C(C)(C)O)n1`: the CI was 0.80 in series [2] (setting [5]); 0.81 in series [2] (setting [6]); 0.39 in series [3] (Compound A : combined compound 1:4, Fa 75, 72 h culture); 0.93 in series [3] (Compound A : combined compound 4:1, Fa 75, 72 h culture).

With `COc1cc([C@@H]2c3cc4c(cc3[C@@H](O[C@@H]3O[C@@H]5CO[C@@H](C)O[C@H]5[C@H](O)[C@H]3O)[C@H]3COC(=O)[C@H]23)OCO4)cc(OC)c1O`, the CI in series [2] (setting [7]) is recorded as 1.02; in series [2] (setting [5]), 0.77; in series [2] (setting [8]), 0.67; in series [2] (setting [9]), 0.77; in series [3] (setting [10]), 0.70; in series [3] (setting [11]) it was 0.10. The CI worked out at 0.50 in series [3] (setting [12]), 0.10 in series [3] (setting [13]) and 0.10 in series [3] (setting [14]).

`NC(=O)c1cccc2cn(-c3ccc([C@@H]4CCCNC4)cc3)nc12`: in series [1] (G3, 37.5 mg/kg PO QD QD), the “Average change … (Day 22 - Day0)” value stood at 172.9 mm^3, the “%BWL (Daily maximum)” value was -3.4(4) %, the “T/C(%)” value was 81.3% and the “Number of animals removed” value was 0. Moreover, the “Average tumor volume (mm^3) day22” value in series [1] (G3, 37.5 mg/kg PO QD QD) is 331.3 mm^3. Also, the CI in series [2] (setting [15]) worked out at 0.87. Besides, the CI in series [2] (setting [16]) is on record as 1.01.

In the case of `CO[C@H]1C[C@@H]2CC[C@@H](C)[C@@](O)(O2)C(=O)C(=O)N2CCCC[C@H]2C(=O)O[C@H]([C@H](C)C[C@@H]2CC[C@@H](OCCO)[C@H](OC)C2)CC(=O)[C@H](C)/C=C(\C)[C@@H](O)[C@@H](OC)C(=O)[C@H](C)C[C@H](C)/C=C/C=C/C=C/1C`, the CI was 0.77 in series [2] (setting [15]) and 0.78 in series [3] (NCI-H661, Compound A + combined compound at fixed concentration 0.1 µM, Fa 50).

Regarding `Nc1ccccc1NC(=O)c1ccc(CNC(=O)OCc2cccnc2)cc1`, the CI in series [2] (setting [17]) is 1.04; in series [2] (setting [7]) it was 0.78; in series [2] (setting [6]), 0.92; in series [2] (setting [18]), 0.70; in series [3] (setting [10]), 0.95; in series [3] (setting [14]), 0.28.

For the compound `CC(=O)O[C@@]12CO[C@@H]1C[C@H](O)[C@@]1(C)C(=O)[C@H](O)C3=C(C)[C@@H](OC(=O)[C@H](O)[C@@H](NC(=O)OC(C)(C)C)c4ccccc4)C[C@@](O)([C@@H](OC(=O)c4ccccc4)[C@H]21)C3(C)C`, in series [1] (G4, 20 mg/kg IV QD QW), the “Average change … (Day 22 - Day0)” value turned out to be 85.3 mm^3, the “%BWL (Daily maximum)” value was -3.1 (18) %, the “T/C(%)” value was found to be 40.1% and the “Number of animals removed” value stood at 0. For the same compound, the “Average tumor volume (mm^3) day22” value in series [1] (G4, 20 mg/kg IV QD QW) amounted to 243.6 mm^3. In addition, the CI in series [3] (setting [13]) is on record as 0.10. In series [3] (setting [14]), the CI was found to be 0.10.

Turning to cisplatin, the CI in series [2] (Compound A + combined compound at fixed concentration 0.32 µM, Fa 50) came to 0.95; in series [2] (Compound A + combined compound at fixed concentration 0.32 µM, Fa 75) it was 0.97; in series [2] (Compound A + combined compound at fixed concentration 0.32 µM, Fa 90), 0.99; in series [3] (NCI-H661, Compound A + combined compound at fixed concentration 0.32 µM, Fa 50), 0.92.

For `CC[C@@H]1C(=O)N(C)c2cnc(Nc3ccc(C(=O)N[C@H]4CC[C@H](N5CCN(CC6CC6)CC5)CC4)cc3OC)nc2N1C(C)C`, the CI is 0.99 in series [2] (setting [19]); 0.92 in series [2] (setting [17]); 0.96 in series [2] (setting [7]); 0.90 in series [2] (setting [5]); 0.86 in series [2] (setting [8]); 0.71 in series [2] (setting [20]). Also, the CI is recorded as 0.97 in series [2] (setting [9]); 0.99 in series [2] (setting [6]); 1.02 in series [2] (setting [18]); 0.10 in series [3] (setting [11]); 0.79 in series [3] (setting [12]); 0.10 in series [3] (setting [14]).

With `N[C@@H](Cc1ccc(N(CCCl)CCCl)cc1)C(=O)O`, the values for the CI in series [2] (setting [21]) and in series [3] (setting [22]) were 0.67 and 0.77, respectively.

Regarding `Cn1c(=O)n(-c2ccc(C(C)(C)C#N)cc2)c2c3cc(-c4cnc5ccccc5c4)ccc3ncc21`, the CI was 0.86 in series [2] (setting [17]); 0.95 in series [2] (setting [8]); 1.09 in series [2] (setting [6]); 1.02 in series [2] (setting [18]); 0.88 in series [3] (setting [10]); 1.06 in series [3] (setting [12]). Besides, the CI in series [3] (setting [23]) is 0.91.

Regarding `Cc1cc(Nc2cc(N3CCN(C)CC3)nc(Sc3ccc(NC(=O)C4CC4)cc3)n2)[nH]n1`, the CI in series [2] (setting [5]) is on record as 0.71; in series [2] (setting [8]), 0.78; in series [3] (setting [11]), 0.69; in series [3] (setting [13]), 0.80; in series [3] (setting [14]) it was 0.63.

For oxaliplatin, the CI was 0.87 in series [2] (Compound A + combined compound at fixed concentration 1 µM, Fa 50); 0.85 in series [2] (setting [15]); 0.83 in series [2] (setting [16]); 0.77 in series [3] (NCI-H661, Compound A + combined compound at fixed concentration 1 µM, Fa 50).

On to `Nc1ccn([C@@H]2O[C@H](CO)[C@@H](O)[C@@H]2O)c(=O)n1`, for which, in series [4], the “Average change in tumor volume (mm^3) (Day 15 - Day 1)” value was determined as 247.5 mm^3. For the same compound, the “%BWL (Daily maximum)” value in series [4] (BALB/cA Jcl-nu/nu mice, day in parentheses) is given as 0.0(1) %. Also, in series [4] (Day 15), the “T/C(%)” value came to 42.2%. In addition, the “Number of animals removed” value in series [4] (N 5) is given as 0. In addition, in series [4] (day 15), the “Average tumor volume (mm^3) day 15” value worked out at 385.8 mm^3.

As to `CC[C@@]1(O)C(=O)OCc2c1cc1n(c2=O)Cc2cc3c(CN(C)C)c(O)ccc3nc2-1`, the CI in series [2] (setting [19]) was 0.82; in series [2] (setting [17]), 0.87; in series [2] (setting [7]), 0.92; in series [2] (setting [5]) it was 0.97; in series [2] (setting [8]), 0.96; in series [2] (setting [20]) it was 0.93. Moreover, the CI turned out to be 0.87 in series [2] (setting [9]); 0.91 in series [2] (setting [6]); 0.95 in series [2] (setting [18]); 0.88 in series [3] (setting [10]); 0.10 in series [3] (NCI-H661, blending ratio (Compound A : combined compound) 1:1, Fa 90); 0.10 in series [3] (NCI-H661, blending ratio (Compound A : combined compound) 1:4, Fa 90). Besides, the values for the CI in series [3] (setting [23]) and in series [3] (setting [14]) were 1.07 and 0.56, respectively.

As to `FC(F)(F)c1ccc(CNc2ccc(Cc3c[nH]c4ncc(Cl)cc34)cn2)cn1`, the CI in series [2] (Compound A + combined compound at fixed concentration 3.2 µM, Fa 50) was 0.78; in series [2] (Compound A + combined compound at fixed concentration 3.2 µM, Fa 75), 0.85; in series [2] (setting [21]), 0.96; in series [3] (NCI-H661, Compound A + combined compound at fixed concentration 3.2 µM, Fa 50) it was 0.69; in series [3] (setting [22]), 0.17.
